These are literature values, as cited in PMC12019583 (Journal of Neurochemistry, 2025).

The test system of the data set is SERT. More on the design: method as in Plenge et al. [2007]. Particulars: ref Plenge et al. [2007]; cited from earlier work.

As for `Fc1ccc([C@@H]2CCNC[C@H]2COc2ccc3c(c2)OCO3)cc1` [Paroxetine, paroxetine], the off-rate is on record as ~ 0.002 s^−1.
